Protein sequences, listed by entry. Tags and fused reporters are not part of them. Residues count along the entry.
UniProt P05187, 23-506 limits assumed: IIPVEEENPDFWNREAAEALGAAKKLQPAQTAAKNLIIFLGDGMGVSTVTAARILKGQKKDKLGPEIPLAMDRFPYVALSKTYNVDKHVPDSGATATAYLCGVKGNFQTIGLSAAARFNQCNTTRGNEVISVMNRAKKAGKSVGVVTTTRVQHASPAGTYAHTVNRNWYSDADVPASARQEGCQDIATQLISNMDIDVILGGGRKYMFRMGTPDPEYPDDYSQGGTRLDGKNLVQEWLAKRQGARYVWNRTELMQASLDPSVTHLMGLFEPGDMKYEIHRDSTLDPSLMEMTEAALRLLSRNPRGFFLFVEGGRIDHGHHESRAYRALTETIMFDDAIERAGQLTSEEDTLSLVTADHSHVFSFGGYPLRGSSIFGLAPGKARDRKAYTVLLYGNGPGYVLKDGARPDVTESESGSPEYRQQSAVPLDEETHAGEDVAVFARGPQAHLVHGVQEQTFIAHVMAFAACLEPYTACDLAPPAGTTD

In PMC3392958, “Assay Format as a Critical Success Factor for Identification of Novel Inhibitor Chemotypes of Tissue-Nonspecific Alkaline Phosphatase from High-Throughput Screening” (Molecules, 2010):

Assays:
[1] = target: T1, human PLAP (Homo sapiens, UniProt P05187); assay: PLAP luminescent assay (CDP-star); type: biochemical; settings: catechol series
T1 construct: made in house; host or cells: COS-1 cells, transient expression; dialyzed serum-free conditioned medium
Description: Selectivity of Primary Actives Against other Phosphatases: To assess the selectivity of compounds across the alkaline phosphatase family, luminescent assays were developed for human PLAP and human IAP with the same CDP-Star reagent. As mentioned above, the PLAP selectivity assay (PubChem AID 1512) was implemented as an integral part of the hit optimization process. For lead characterization, we added a luminescent assay for IAP (PubChem AID 1017) to the selectivity panel. The selectivity data for the best representatives of the scaffolds, obtained at our screening center (CPCCG) and extracted from the PubChem database, are summarized in Table 4.
Development of the novel luminescent TNAP assay using CDP-star substrate and detailed protocol of its application for HTS is described in more detail elsewhere. […] Briefly, the assay was 50 μM CDP-star substrate in assay buffer containing 100 mM DEA-HCl (pH 9.8), 1 mM MgCl2, and 20 μM ZnCl2. The luminescence signal was measured after a 30-min incubation at room temperature on an EnVision plate reader (PerkinElmer, Waltham, MA). […] Detailed protocols can be found in the respective AIDs, however, the final buffer conditions were 100 mM DEA, pH 9.8, 1.0 mM MgCl2, 0.02 mM ZnCl2 for both PLAP and IAP.

[2] = target: T2, TNAP (Homo sapiens, UniProt P05186); set-up: method as in PMID 19556612; settings: three DEA concentrations tested; cited from earlier work
T2 construct: made in house; host or cells: COS-1 cells, transient expression; dialyzed serum-free conditioned medium
T2 sequence (P05186 18-501 limits assumed): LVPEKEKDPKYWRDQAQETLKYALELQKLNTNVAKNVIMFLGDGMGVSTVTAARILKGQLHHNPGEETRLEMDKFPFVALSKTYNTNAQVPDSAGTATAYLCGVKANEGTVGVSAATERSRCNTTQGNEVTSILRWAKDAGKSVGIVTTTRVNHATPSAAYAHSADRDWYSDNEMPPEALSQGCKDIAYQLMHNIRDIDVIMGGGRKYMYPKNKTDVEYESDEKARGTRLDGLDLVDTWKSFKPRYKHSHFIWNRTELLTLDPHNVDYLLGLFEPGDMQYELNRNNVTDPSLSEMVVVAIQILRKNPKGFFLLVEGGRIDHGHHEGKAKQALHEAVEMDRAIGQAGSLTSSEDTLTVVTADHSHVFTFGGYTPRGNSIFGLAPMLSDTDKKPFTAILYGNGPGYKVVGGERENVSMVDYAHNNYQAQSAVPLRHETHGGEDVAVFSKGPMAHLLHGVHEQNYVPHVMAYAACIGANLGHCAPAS

[3] = target: T2, TNAP; assay: TNAP colorimetric assay (pNPP substrate, OD405, 1M DEA); type: biochemical
[4] = target: T2, TNAP; assay: TNAP luminescent assay (CDP-star substrate, 100 mM DEA); type: biochemical
[5] = target: T2, TNAP; assay: TNAP colorimetric malachite green phosphate detection (MG) assay; type: biochemical

Row | Structure (SMILES) | IC50 [1] [µM] | mechanism of TNAP inhibition with respect to DEA [2] | average Hill coefficient, colorimetric p-nitrophenol release assay [3] | average Hill coefficient, luminescent assay [4] | mode of TNAP inhibition versus the phosphate accepting substrate (DEA) [4] | mode of TNAP inhibition versus the phosphate donating substrate (CDP-star or pNPP) [4] | average Hill coefficient, colorimetric phosphate-release assay [5]
1 | Cc1cc(C)nc(SCC(=O)c2ccc(O)c(O)c2)n1 [MLS-0315687] | 2.5 |  |  |  |  |  | 
2 | COc1ccc(OC)c(S(=O)(=O)Nc2cnc3ccccc3c2)c1 [MLS-0038949] |  | noncompetitive | 1.02 | 1.12 | non-competitive | uncompetitive | 0.99
